AlphaSeq binding of Ab-14 light chain variants to a spike HR2 peptide

Target peptide (SARS-CoV-2 spike, HR2 region): PDVDLGDISGINAS

Parent: Ab-14, a human scFv built as VH, the linker GGGGSGGGGSGGGGS, VL. Only the CDRs of the light chain vary.
VH: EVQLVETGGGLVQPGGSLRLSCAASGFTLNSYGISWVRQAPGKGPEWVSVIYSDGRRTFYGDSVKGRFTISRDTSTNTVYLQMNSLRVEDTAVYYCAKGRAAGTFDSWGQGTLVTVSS
VL: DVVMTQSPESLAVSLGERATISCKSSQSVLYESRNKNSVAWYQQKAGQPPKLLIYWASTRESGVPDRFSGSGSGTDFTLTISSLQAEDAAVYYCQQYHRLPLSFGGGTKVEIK

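Phage display of a naive human antibody library on the peptide gave the parent. AAYL50 was designed without a model: most single CDR substitutions and a random sample of double and triple ones. In AlphaSeq, yeast of one mating type display the scFv and yeast of the other type display the target. After mating in shaken culture at 30 °C for 16 h, diploids were selected and their barcode pairs sequenced. A regression on co-assayed BCL2-family reference pairs converts the normalised counts of each replicate to an apparent Kd. The assay was run in three technical replicates.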

Each variant is given by its three light chain CDRs, as the data file delimits them; those of the parent are KSSQSVLYESRNKNSVA, WASTRES, QQYHRLPLS.
Every variant below is changed at Q27 of the VL (sequential numbering).
Kd is apparent (estimated from mating counts) and averaged on the log scale over replicates with a signal. Smaller is tighter.
An entry "nd" has no value in the source: the pair was not observed among the diploids in any replicate. This suggests poor binding but is not conclusive.
Empty control strains, which show no peptide, gave a signal in 18% of pairings with library AAYL50; the median was 15 µM and 95% of these signals were weaker than 970 nM. No background was subtracted.
For reference, the parent read 4.4 nM as the reference entry and 48 nM as a member of this library.

With KSSPSVLYESRNKNSVA / WASTRES / FQYHRLPLS the result was 73 µM (3 of 3 replicates). The variant KSSMSVLYESRNKNSVA / WASTRES / QIYHRLPLH gave nd (0 of 3 replicates). The variant KSSKSVLYESRNKNSVA / WRSTQES / QQYHRLPLS showed 110 µM (2 of 3 replicates). The variant KSSDSRLYESRNKNSVA / WASTRDS / QQYHRLPLS showed 110 µM (2 of 3 replicates). The variant KSSWSVLYESRNNNSVA / WASTRES / QQYHRLPLW gave 660 nM (2 of 3 replicates). For KSSCSVLYESRNKNSTA / WISTRES / QQYHRLPLS, the assay gave nd (0 of 3 replicates).

With KSSGSVLYENRNKNSVA / WANTRES / QQYHRLPLS the result was 730 nM (3 of 3 replicates). With KSSKSVLYESRNKNSVA / WASTRES / QQYHRFWLS the result was 6.6 nM (3 of 3 replicates). For KSSESVNYESRNKNSVA / WASTRES / QQWHRLPLS, the assay gave 2.7 µM (1 of 3 replicates). For FSSMSVLYESRNKNSVA / WASHRES / QQYHRLPLS, the assay gave 150 nM (3 of 3 replicates). With KSSASVLYESRNSNSVA / WASTRES / LQYHRLPLS the result was 5.2 nM (3 of 3 replicates). For KSSPSPLYEIRNKNSVA / WASTRES / QQYHRLPLS, the assay gave 33 nM (3 of 3 replicates).

The variant KSSMSVLYESPNKNSVA / WASTRES / QQYHRLPLE gave 220 nM (3 of 3 replicates). The variant KSSLSVLYESKNPNSVA / WASTRES / QQYHRLPLS gave 5.4 nM (3 of 3 replicates). For KSSNSVLYLSRNKNSVA / WASTRES / QQYHYLPLS, the assay gave 180 nM (3 of 3 replicates). For KSSEQVLYESRNKNSVA / WASTRES / QQYHRLSLS, the assay gave 9.9 nM (3 of 3 replicates). The variant KSSVSVLYESRRKNSVA / WACTRES / QQYHRLPLS showed nd (0 of 3 replicates). The variant KSKVSMLYESRNKNSVA / WASTRES / QQYHRLPLS gave 790 nM (2 of 3 replicates).

For KSSHSYLYESRNKNNVA / WASTRES / QQYHRLPLS, the assay gave 3.0 nM (3 of 3 replicates). For KSNLSVLYESRNKNSVA / WASTRES / QQYHRLPLS, the assay gave 110 nM (3 of 3 replicates). The variant KFSSSVLYESRNKNSVA / WASTPES / QQYHRLPLS showed 5.6 nM (3 of 3 replicates). With KSSWSVLYESRNKESVA / WASTRES / QQYHRLHLS the result was nd (0 of 3 replicates). With KSSGSVSYESRNKNSVA / WASTRES / QQYHTLPLS the result was 7.1 nM (3 of 3 replicates). The variant KSSLSVLYESRNKNSVA / WASTRES / QQCHRLPLS showed 170 µM (1 of 3 replicates).

The variant KSSLSVLYLSRNKNSVA / WASTRES / QQYHRQPLS gave 110 nM (3 of 3 replicates). The variant KSSGSVLYESRNKNSVA / WASTRES / QTYHRLPLL showed 35 nM (3 of 3 replicates). With KSSRSVKYESQNKNSVA / WASTRES / QQYHRLPLS the result was 6.0 nM (3 of 3 replicates). For KSSWSVHYESRNKNSVA / WASTRES / QQYHRLPLY, the assay gave 18 nM (3 of 3 replicates). For KSSISVLYESRNKNSVA / WASSRES / QQYHQLPLS, the assay gave nd (0 of 3 replicates). The variant KVSGSVLYESRNKGSVA / WASTRES / QQYHRLPLS gave 5.5 nM (3 of 3 replicates).

The variant KSSTSVLYESRNKNSVA / WASTRES / QQYHRLPLS showed nd (0 of 3 replicates). The variant KSWMSVLYESRNKNSVA / WASTRES / QQYHRLPLS gave 89 nM (3 of 3 replicates). The variant KSSYSVLYESRNKNSVA / APSTRES / QQYHRLPLS showed 330 nM (3 of 3 replicates). The variant KSSRSVLYELRNKNSVA / WASMRES / QQYHRLPLS showed 3.9 µM (3 of 3 replicates). The variant KSSYSVLYESRNKNSVA / WASTRES / IQYHRLPLL showed nd (0 of 3 replicates). For KSSCSVHYESRNKNSVA / WASTCES / QQYHRLPLS, the assay gave 65 µM (1 of 3 replicates).

The variant KRSVSVLYESRNKNSVA / WASTRES / QQYHMLPLS gave 190 nM (2 of 3 replicates). The variant KSSMSKLYESRNKNSVA / WACTRES / QQYHRLPLS gave 2.9 µM (3 of 3 replicates). The variant KSSCSVLYELRNKNSVA / WASTRVS / QQYHRLPLS gave 3.9 µM (1 of 3 replicates). The variant KSSDSVLYESRNYNSFA / WASTRES / QQYHRLPLS showed nd (0 of 3 replicates). The variant KSSNSVYYESRNKNSVA / WASTRES / QQYHRAPLS gave nd (0 of 3 replicates). The variant KSSLSELYESRNKNMVA / WASTRES / QQYHRLPLS showed 110 nM (3 of 3 replicates).

The variant KSSDSVLYESRNKNSVA / WAPTRES / QQYHRLPLS showed nd (0 of 3 replicates). For KSSLSVLYESRNKNSVA / WASTRES / QQYHRLPLS, the assay gave 11 nM (3 of 3 replicates). With KSSPSVWYESRNKNSVA / WASTRES / QQYHRWPLS the result was 74 nM (3 of 3 replicates). The variant KSSKSVLQESRNCNSVA / WASTRES / QQYHRLPLS showed 4.2 nM (3 of 3 replicates).

Excerpt, the first 7 entries:

Variant KSSPSVLYESRNKNSVA / WASTRES / FQYHRLPLS showed 73 µM (3 of 3 replicates).
Variant KSSMSVLYESRNKNSVA / WASTRES / QIYHRLPLH showed nd (0 of 3 replicates).
Variant KSSKSVLYESRNKNSVA / WRSTQES / QQYHRLPLS showed 110 µM (2 of 3 replicates).
Variant KSSDSRLYESRNKNSVA / WASTRDS / QQYHRLPLS showed 110 µM (2 of 3 replicates).
Variant KSSWSVLYESRNNNSVA / WASTRES / QQYHRLPLW showed 660 nM (2 of 3 replicates).
Variant KSSCSVLYESRNKNSTA / WISTRES / QQYHRLPLS showed nd (0 of 3 replicates).
Variant KSSGSVLYENRNKNSVA / WANTRES / QQYHRLPLS showed 730 nM (3 of 3 replicates).

Source: Engelhart et al. 2022 (doi:10.1038/s41597-022-01779-4), MIT Lincoln Laboratory and A-Alpha Bio; data file from the FLAb repository.